From patent US20250049817A1, “JAK INHIBITOR WITH A VITAMIN D ANALOG FOR TREATMENT OF SKIN DISEASES” (INCYTE CORPORATION, priority 2020, published 2025)

Target: human JAK1 (a.a. 837-1142) (Homo sapiens, UniProt P23458)
Assay: In vitro JAK kinase assay (HTRF), JAK1
Assay type: biochemical
Settings: 1 mM ATP

IC50: < 10 nM
Structure (SMILES): CN(C)Cc1cc(F)cc(OC2CCN(CC(CC#N)n3cc(-c4ncnc5[nH]ccc45)cn3)CC2)c1 (single isomer, unassigned) [Compound 14, 4-(4-{3-[(dimethylamino)methyl]-5-fluorophenoxy}piperidin-1-yl)-3-[4-(7H-pyrrolo[2,3-d]pyrimidin-4-yl)-1H-pyrazol-1-yl]butanenitrile]
